{"sequences": {"note": "Amino acid sequences for entries named in this document (tags omitted).", "UniProt P68400, whole entry": "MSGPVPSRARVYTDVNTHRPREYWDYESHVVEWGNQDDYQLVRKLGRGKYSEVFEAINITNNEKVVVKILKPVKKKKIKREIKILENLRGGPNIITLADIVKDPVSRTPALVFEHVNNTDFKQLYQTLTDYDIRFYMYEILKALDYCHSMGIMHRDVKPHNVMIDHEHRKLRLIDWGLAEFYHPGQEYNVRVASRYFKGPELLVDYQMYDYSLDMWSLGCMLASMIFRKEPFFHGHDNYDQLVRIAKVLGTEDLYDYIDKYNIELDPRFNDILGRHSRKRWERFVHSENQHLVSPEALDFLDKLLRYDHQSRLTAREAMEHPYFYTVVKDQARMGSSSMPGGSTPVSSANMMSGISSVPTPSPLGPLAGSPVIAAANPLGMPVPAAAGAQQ"}, "source": "paper PMC6002439", "about": "“Inhibitory influence of natural flavonoids on human protein kinase CK2 isoforms: effect of the regulatory subunit” (Molecular and Cellular Biochemistry, 2017)", "target": "T1, CK2α2β2 (Homo sapiens, UniProt P68400)", "T1 construct": "GST (N); made in house; host or cells: E. coli BL21(DE3)trxB", "assay": "CK2 activity, phosphorylation of yeast P2B protein substrate, CK2α2β2 holoenzyme", "assay_type": "biochemical", "conditions": "10 μM yeast P2B as substrate, 20 µM ATP", "procedure": "CK2α2β2 and CK2α′2β2 holoenzymes were purified as described elsewhere. Briefly, both catalytic subunits were overexpressed as GST fusion proteins, whereas the regulatory subunit was expressed as His-tagged protein. E. coli BL21(DE3)trxB cells (Novagen) harboring the plasmid pGEX-3X::CSNK2A1, pGEX-3X::CSNK2A2 or pET28a::CSNK2B were grown until OD600 = 0.6 at 37 °C. Next, IPTG was added to the final concentration of 0.2 mM; cultures were continued at room temperature for 4 h and then centrifuged at 5000×g for 10 min. Obtained bacterial pellets were mixed prior to lysis. Cells were disrupted by sonication and the supernatant was purified using glutathione-Sepharose (Pharmacia Biotech). Fractions containing the CK2 holoenzyme were pooled and dialysed against 50 mM Tris/HCl buffer pH 7.5 supplemented with 6 mM β-mercaptoethanol and 30% glycerol. The obtained protein preparations were used in enzymatic assays.\nCK2 activity was determined in a standard reaction mixture (40 μL of final volume) containing 20 mM Tris–HCl buffer, pH 7.5, 15 mM MgCl2, 6 mM β-mercaptoethanol, and 20 μM [γ-^32P]ATP (specific radioactivity 500–1000 cpm/pmol) in the presence of 10 μM yeast P2B as substrate. […] The phosphate incorporation level in the P2B protein was estimated by cutting off the corresponding band and measuring the radioactivity in a scintillation counter (Perkin-Elmer).", "data": [{"smiles": "O=c1cc(-c2ccc(O)cc2)oc2cc(O)cc(O)c12", "note": "[Compound 4, apigenin]", "values": [{"measurement": "IC50", "value": "1500 ± 100", "unit": "nM"}]}]}
